Holding throughout (experiment): Kinase inhibitory activity, isotopic labeling (γ-33P-ATP)
What all share (type): biochemical

Chains of the proteins cited; added tags and fusions are not shown. Residues count along the entry.
UniProt P00533, 25-1210 L858R: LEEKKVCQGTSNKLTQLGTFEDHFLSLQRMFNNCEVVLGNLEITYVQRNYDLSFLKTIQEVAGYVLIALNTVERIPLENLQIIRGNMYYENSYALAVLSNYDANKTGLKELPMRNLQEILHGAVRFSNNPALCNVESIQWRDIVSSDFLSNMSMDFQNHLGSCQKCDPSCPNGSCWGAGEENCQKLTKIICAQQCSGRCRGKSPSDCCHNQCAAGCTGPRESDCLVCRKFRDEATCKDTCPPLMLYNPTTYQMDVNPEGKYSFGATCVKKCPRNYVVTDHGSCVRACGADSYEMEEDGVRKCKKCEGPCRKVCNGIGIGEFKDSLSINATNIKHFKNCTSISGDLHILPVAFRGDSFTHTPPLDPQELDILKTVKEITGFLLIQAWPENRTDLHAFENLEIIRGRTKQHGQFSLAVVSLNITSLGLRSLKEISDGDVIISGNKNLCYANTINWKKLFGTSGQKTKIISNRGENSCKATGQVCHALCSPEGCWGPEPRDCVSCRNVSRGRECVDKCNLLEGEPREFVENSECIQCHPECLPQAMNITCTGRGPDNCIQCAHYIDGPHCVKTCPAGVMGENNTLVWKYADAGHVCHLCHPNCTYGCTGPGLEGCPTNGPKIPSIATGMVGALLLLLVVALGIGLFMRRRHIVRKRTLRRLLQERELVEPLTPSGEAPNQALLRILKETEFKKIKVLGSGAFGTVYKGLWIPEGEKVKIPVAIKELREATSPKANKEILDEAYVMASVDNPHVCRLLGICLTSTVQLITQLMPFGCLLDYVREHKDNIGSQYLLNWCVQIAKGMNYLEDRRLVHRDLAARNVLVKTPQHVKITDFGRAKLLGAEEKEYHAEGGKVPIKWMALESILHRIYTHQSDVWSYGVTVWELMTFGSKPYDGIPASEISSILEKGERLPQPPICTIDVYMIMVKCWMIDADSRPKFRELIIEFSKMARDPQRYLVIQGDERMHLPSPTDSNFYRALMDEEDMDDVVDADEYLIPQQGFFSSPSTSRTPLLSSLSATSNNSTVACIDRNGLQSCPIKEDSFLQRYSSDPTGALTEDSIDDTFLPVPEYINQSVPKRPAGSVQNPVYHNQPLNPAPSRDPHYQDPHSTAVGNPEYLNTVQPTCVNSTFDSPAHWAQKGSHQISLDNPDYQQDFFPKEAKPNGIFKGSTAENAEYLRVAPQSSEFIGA
UniProt P00533, 25-1210 T790M/L858R: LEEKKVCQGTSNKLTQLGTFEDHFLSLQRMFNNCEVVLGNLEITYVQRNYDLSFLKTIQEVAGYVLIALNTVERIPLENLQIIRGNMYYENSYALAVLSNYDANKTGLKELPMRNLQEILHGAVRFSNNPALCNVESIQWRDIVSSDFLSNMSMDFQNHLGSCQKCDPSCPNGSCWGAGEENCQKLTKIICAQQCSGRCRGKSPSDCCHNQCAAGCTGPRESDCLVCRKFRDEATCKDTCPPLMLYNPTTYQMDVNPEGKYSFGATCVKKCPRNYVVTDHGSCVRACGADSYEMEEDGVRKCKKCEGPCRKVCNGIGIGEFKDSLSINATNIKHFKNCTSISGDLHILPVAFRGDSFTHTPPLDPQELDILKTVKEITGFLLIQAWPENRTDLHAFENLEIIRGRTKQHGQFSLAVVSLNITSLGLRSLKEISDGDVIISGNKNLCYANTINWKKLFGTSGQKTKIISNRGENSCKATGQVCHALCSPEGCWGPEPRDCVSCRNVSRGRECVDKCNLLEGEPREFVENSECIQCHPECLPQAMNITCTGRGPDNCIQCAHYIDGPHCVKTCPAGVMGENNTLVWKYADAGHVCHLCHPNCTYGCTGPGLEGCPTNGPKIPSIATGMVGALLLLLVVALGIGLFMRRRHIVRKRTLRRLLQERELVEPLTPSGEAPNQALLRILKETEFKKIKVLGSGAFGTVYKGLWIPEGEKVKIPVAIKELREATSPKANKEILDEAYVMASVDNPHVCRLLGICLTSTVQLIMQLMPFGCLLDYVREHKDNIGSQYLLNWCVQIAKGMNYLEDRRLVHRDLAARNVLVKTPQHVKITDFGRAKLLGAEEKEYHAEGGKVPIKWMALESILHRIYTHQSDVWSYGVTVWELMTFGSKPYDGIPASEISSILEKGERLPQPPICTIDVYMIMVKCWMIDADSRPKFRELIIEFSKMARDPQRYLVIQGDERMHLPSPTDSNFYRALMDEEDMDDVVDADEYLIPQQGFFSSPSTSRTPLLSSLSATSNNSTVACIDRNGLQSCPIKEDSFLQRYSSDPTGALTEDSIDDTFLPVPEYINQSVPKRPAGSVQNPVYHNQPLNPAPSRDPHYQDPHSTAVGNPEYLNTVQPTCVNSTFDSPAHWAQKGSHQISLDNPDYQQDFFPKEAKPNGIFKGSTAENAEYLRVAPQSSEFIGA
UniProt P00533, 25-1210: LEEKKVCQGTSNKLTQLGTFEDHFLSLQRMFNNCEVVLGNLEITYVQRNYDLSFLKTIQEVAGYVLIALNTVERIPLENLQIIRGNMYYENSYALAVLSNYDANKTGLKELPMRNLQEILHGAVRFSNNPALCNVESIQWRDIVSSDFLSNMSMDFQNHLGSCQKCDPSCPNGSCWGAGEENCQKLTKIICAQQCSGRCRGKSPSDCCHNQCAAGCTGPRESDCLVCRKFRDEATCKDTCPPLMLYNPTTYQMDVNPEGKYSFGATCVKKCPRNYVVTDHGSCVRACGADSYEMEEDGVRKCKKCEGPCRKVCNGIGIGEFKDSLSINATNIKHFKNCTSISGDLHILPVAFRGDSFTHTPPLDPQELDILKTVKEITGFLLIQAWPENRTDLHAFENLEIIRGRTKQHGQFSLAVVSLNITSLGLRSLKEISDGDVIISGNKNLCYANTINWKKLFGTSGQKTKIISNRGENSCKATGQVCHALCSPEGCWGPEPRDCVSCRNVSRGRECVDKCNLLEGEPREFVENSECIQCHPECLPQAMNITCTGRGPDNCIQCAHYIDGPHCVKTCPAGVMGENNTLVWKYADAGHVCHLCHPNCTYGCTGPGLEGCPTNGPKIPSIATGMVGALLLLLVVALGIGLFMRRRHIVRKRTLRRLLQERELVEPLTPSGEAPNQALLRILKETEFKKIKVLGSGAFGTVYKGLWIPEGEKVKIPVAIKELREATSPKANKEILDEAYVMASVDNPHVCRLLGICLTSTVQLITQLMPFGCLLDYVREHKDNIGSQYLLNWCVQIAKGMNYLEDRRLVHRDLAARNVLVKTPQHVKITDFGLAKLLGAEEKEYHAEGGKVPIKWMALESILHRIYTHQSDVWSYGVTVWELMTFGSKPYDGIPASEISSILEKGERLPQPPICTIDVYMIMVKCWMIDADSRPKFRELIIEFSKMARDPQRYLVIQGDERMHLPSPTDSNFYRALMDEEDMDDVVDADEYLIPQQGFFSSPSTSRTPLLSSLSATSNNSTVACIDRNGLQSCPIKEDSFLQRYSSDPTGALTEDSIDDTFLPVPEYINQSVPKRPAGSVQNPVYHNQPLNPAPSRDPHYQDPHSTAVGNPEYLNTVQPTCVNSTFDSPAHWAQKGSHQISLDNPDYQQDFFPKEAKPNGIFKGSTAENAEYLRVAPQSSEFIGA

In test [1] the target is EGFR L858R mutant type (Homo sapiens (Human), UniProt P00533, L858R). As to the method: (§1) The object of this assay was to test the inventive compounds for the kinase inhibitory activity in vitro. In this assay, an isotopic labeling method was used to label the γ phosphate group on ATP. […] Staurosporine was used as a reference molecule (or referred to as a positive control). […] The IC50 value can be obtained by the calculation of the inhibitory rates at a series of different concentrations of the tested compounds.
(§2) To a reaction tube were successively added the buffer solution (8 mM MOPS, pH 7.0, 0.2 mM EDTA, 10 mM MnCl2), the kinase to be tested (5-10 mU) (EGFR/ALK/BTK/c-KIT/c-SRC/MET/PDGFRα/VEGFR2), the substrate for the kinase to be tested (a reference material), 10 mM of the solution of magnesium acetate and γ-^33 P-ATP, and different concentrations of the tested compounds. […] The reaction was terminated with […] of the 3% phosphate buffer solution. 10 μL of the reaction liquid was titrated on the Filtermat A membrane. The membrane was washed with 75 mM of the phosphate solution thrice (5 minutes each time), and then with methanol once, and finally dried. The membrane was subjected to a scintillation counting. The value of the scintillation counting reflected the phosphorylation level of the substrate and therefore could characterize the inhibition of the kinase activity.

Test [2] deals with EGFR L858R/T790M double mutant type (Homo sapiens (Human), UniProt P00533, L858R/T790M). To be noted: ATP 45 μM (Km). The protocol: as §1, §2
Test [3] concerns the target EGFR wild type (Homo sapiens (Human), UniProt P00533). The protocol: as §1, §2

Regarding `COc1cc(C(=O)NN2CCN(C)CC2)ccc1Nc1ncc2nc(Nc3ccccc3)n(C(C)C)c2n1` [Compound 8-7, 3-methoxy-4-(9-isopropyl-8-phenylamino-9H-purin-2-ylamino)-N-(4-methylpiperazin-1-yl)benzamide], the concentration for half-maximal inhibition (IC50) in test [1] is 0.001 µM; in test [2], 0.128 µM; in test [3], 0.007 µM.

As a reminder, the IC50 is the midpoint of a concentration-inhibition curve. Higher therefore signals lower potency.

For the origin of these results see US9096601B2 (CSPC Zhongqi Pharmaceutical Technology (Shijiazhuang) Co., …, priority 2010, dated 2015).
